In PubChem BioAssay (NCATS):
The entries are a selection whose mix differs from that of the whole data set. Inconclusive results are not listed. Active and inactive are the calls of the source. Unless noted, the call rests on the fitted dose curve; in most records, active means well fitted curve in the direction sought with a large enough effect; inconclusive means small, poorly fitted or top-dose-only effect, or another doubt; inactive means no such curve, though single readings can be large; an effect the other way counts as inactive or inconclusive.

Protein sequences, listed by entry. Tags and fused reporters are not part of them. Lines headed by an entry give the natural chain unless they say otherwise; changes in a name come on top.
UniProt P20594: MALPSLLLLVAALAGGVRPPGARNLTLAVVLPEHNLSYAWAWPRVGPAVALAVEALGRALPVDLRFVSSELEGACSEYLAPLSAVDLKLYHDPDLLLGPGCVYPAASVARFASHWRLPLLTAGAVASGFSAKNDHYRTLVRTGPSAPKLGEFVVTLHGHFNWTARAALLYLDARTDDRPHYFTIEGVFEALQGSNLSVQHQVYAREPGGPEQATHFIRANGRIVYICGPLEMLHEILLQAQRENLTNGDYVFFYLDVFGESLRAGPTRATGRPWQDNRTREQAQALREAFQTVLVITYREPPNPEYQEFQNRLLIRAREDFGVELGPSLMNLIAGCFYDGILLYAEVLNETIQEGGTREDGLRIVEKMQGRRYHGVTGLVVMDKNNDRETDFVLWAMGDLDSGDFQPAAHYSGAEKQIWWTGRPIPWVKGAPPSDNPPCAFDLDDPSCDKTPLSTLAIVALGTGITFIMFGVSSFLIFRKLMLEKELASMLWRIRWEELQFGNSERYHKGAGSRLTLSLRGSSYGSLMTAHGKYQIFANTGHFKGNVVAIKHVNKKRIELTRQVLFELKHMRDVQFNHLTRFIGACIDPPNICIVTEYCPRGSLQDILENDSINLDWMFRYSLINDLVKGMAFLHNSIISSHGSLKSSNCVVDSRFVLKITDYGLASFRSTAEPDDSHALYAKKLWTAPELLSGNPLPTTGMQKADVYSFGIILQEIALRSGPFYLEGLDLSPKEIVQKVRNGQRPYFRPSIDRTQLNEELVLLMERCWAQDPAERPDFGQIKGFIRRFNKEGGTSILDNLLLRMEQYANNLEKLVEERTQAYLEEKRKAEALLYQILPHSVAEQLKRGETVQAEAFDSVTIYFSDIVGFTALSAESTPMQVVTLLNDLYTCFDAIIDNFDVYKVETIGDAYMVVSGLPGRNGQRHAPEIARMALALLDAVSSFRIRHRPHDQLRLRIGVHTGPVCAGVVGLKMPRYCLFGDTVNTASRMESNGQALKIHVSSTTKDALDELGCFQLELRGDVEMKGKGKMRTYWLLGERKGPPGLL
UniProt P78324, whole entry, looked up: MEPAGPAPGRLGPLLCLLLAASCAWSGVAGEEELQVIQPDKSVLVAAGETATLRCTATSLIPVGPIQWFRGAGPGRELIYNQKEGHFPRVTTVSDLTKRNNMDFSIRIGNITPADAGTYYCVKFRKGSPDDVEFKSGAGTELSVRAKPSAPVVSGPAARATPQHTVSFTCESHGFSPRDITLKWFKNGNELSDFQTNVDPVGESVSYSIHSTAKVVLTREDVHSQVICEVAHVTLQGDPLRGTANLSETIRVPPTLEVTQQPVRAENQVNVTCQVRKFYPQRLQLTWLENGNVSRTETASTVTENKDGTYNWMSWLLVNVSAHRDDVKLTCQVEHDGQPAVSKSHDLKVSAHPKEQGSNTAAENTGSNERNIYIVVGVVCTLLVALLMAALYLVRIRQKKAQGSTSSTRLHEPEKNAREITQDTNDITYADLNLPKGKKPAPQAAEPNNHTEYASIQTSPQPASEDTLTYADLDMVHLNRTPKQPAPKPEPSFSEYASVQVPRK
UniProt Q08722, whole entry, looked up: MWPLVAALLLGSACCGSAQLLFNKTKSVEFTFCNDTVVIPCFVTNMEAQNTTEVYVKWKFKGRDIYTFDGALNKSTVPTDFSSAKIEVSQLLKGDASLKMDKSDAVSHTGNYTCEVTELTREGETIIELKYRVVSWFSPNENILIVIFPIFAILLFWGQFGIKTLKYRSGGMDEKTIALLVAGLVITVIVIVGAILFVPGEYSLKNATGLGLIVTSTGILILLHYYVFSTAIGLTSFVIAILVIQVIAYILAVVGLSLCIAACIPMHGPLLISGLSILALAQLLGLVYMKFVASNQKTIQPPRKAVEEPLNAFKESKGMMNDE
UniProt Q03431: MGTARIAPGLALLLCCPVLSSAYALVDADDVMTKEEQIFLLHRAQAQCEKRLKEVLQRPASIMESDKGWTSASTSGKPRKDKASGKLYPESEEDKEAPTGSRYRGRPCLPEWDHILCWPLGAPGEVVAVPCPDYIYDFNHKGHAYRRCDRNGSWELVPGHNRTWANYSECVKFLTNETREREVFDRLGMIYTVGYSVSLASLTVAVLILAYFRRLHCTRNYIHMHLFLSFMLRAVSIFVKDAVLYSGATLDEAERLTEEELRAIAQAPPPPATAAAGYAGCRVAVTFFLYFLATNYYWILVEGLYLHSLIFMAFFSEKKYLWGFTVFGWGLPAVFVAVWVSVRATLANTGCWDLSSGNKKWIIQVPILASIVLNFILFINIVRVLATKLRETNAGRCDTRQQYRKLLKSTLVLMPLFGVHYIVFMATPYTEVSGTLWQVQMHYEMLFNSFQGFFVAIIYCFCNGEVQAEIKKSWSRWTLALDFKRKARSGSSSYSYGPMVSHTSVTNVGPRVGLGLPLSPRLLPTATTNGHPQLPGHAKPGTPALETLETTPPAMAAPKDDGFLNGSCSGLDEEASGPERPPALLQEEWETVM
UniProt Q9BV86: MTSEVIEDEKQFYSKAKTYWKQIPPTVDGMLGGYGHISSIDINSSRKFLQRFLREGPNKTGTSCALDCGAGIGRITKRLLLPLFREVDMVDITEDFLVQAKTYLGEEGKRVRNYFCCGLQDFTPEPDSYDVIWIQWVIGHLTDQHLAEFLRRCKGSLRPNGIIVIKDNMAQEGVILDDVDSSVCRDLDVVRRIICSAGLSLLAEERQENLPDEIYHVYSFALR
UniProt Q9GZX7: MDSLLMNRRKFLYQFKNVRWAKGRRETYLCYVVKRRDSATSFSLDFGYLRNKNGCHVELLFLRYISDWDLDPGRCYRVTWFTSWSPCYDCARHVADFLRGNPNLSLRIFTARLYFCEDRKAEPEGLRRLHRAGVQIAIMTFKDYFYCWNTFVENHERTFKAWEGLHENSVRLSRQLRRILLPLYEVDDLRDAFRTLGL
UniProt P00784: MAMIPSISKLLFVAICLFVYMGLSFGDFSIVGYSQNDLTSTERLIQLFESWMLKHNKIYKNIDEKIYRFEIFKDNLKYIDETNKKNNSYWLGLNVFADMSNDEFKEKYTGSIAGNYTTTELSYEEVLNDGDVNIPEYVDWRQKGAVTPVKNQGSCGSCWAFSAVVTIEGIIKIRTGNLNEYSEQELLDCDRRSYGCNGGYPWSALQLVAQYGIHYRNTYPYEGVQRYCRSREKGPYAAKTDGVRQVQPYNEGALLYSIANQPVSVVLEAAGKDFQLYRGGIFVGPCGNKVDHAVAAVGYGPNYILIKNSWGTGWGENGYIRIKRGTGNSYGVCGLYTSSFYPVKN
UniProt C7C422: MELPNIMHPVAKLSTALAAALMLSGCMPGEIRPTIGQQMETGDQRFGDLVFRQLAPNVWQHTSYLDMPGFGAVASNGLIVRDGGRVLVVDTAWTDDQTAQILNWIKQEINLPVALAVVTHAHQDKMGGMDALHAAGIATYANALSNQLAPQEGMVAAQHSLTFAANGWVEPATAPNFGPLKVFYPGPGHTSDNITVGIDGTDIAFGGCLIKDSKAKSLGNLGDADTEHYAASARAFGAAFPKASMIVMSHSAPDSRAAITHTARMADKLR
UniProt P07203, whole entry, looked up: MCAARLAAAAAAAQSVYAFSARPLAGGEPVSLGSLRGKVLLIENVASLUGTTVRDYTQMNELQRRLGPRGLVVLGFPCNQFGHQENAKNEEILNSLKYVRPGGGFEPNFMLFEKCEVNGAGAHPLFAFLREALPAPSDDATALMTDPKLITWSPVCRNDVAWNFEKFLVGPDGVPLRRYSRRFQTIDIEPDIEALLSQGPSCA
UniProt P36969, whole entry, looked up: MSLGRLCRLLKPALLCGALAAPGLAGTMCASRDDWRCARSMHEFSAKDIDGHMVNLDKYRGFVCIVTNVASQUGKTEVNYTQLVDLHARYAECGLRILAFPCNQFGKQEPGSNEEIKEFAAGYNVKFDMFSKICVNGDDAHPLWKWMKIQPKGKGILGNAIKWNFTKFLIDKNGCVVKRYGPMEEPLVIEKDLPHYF

Experiments:
[1] = molecular target: Atrial natriuretic peptide receptor 2 (Homo sapiens) (UniProt P20594); assay: Natriuretic polypeptide receptor (hNpr2) antagonism - Pilot subtype selectivity assay (AID 1347050; calls by dose curve; further: on the % scale 0 is the no-effect control and ±100 the full control effect); conditions: NPR2-expressing cells, cGMP antagonist-mode read-out; at 38.3 µM (top of the series)
Method in brief: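 HEK293 cells expressing hNpr2 and a GloSensor cGMP luciferase sensor, 1500/well, preloaded 2 h with 2% GloSensor reagent, compound 30 min, then 1 nM hNppC for 20 min. Antagonism from luminescence after versus baseline pre-read; LOPAC in 1:5 titrations.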

[2] = molecular target: T1, Tyrosine-protein phosphatase non-receptor type substrate 1 (Homo sapiens) + Leukocyte surface antigen CD47 (Homo sapiens) (UniProt P78324+Q08722); assay: CD47-SIRPalpha protein protein interaction - LANCE assay qHTS validation (AID 1347057; active means well fitted curve in the direction sought with a large enough effect in the signal ratio, with a control signal flat, not every such curve was filed as active; the % refers to the signal ratio; further: 0% is about no effect); conditions: Recombinant CD47-His / biotin-SIRPalpha, TR-FRET ratio; at 38.3 µM (top of the series)
Method in brief: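 First, His-tagged CD47 and Eu-labelled anti-His antibody met the compound for 30 min; next, site-specifically biotinylated SIRPalpha was added for 30 min; finally streptavidin-APC was added before reading the TR-FRET ratio.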

[3] = molecular target: T1, Tyrosine-protein phosphatase non-receptor type substrate 1 (Homo sapiens) + Leukocyte surface antigen CD47 (Homo sapiens); assay: CD47-SIRPalpha protein protein interaction - HTRF assay qHTS validation (AID 1347058; active means well fitted curve in the direction sought with a large enough effect in the signal ratio, not every such curve was filed as active; the % refers to the signal ratio;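 further: recombinant soluble extracellular CD47 with His tag and biotinylated SIRPalpha domains; 0% is about no effect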); conditions: TR-FRET HTRF CD47-His / biotin-SIRPalpha binding, ratio 665/615; at 38.3 µM (top of the series)
Method in brief: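 TR-FRET read (Ch1/Ch2 ratio) of soluble extracellular CD47 and Avi-biotinylated SIRPalpha domains in PBS pH 7.4 with 0.05% IGEPAL; 7-point compound titration. Sequential 30 min room-temperature steps; non-biotinylated SIRPalpha as control inhibitor.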

[4] = molecular target: T1, Tyrosine-protein phosphatase non-receptor type substrate 1 (Homo sapiens) + Leukocyte surface antigen CD47 (Homo sapiens); assay: CD47-SIRPalpha protein protein interaction - Alpha assay qHTS validation (AID 1347059); conditions: AlphaScreen CD47-His/biotin-SIRPalpha binding, LOPAC; at 38.3 µM (top of the series);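 further: bead proximity luminescence from CD47 binding SIRPalpha after compound preincubation with SIRPalpha; on the % scale 0 is the no-effect control and ±100 the full control effect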
Method in brief: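 Biotinylated Avi-tagged SIRPalpha (25 nM) preincubated 30 min with compound, then His-tagged CD47 (12.5 nM) added 30 min; AlphaScreen with Ni-NTA acceptor and streptavidin donor beads. PBS pH 7.4, 0.05% IGEPAL, room temperature; 7-point titrations.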

[5] = molecular target: Parathyroid hormone/parathyroid hormone-related peptide receptor (Homo sapiens) (UniProt Q03431); assay: qHTS for PTHR1 Agonists: Optimization Screen against the NCGC LOPAC library (AID 1347079); conditions: HEK293 GP2 PTHR1 GloSensor cAMP luminescence, 1 h; at 57.1 µM (top of the series);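 further: GloSensor cAMP luminescence in HEK-293 GP2 cells expressing human PTHR1 with IBMX; 0% is about no effect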
Method in brief: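 Agonist readout: GloSensor cAMP luminescence, read after 15 min at room temperature. HEK-293-derived GP2 line carries PTHR1; compounds tested as a titration for 1 hr at 37C in presence of IBMX. M-PTH (1-15) served as control.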

[6] = molecular target: N-terminal Xaa-Pro-Lys N-methyltransferase 1 (Homo sapiens) (UniProt Q9BV86); assay: qHTS Assay for Inhibitors of N-terminal methyltransferase 1 (NTMT1): LOPAC validation of the NTMT1 SAHH-coupled ThioGlo3 Assay (AID 1347143); conditions: recombinant NTMT1, SAHH-coupled ThioGlo3 fluorescence; at 114 µM (top of the series);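 further: SAH from peptide methylation measured as thiol fluorescence via SAHH coupling and ThioGlo3; on the % scale 0 is the no-effect control and ±100 the full control effect; nearly all actives have a fitted effect of over 70% in size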
Method in brief: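 Recombinant human NTMT1 (125nM) was pre-incubated 1 min at room temperature with compounds over a concentration range, then a mix of 100uM SAM, 10uM SAHH and 15uM ThioGlo3 (concentrations in added reagent) was added. ThioGlo3 fluorescence (ex 340/em 450nm) after 30 min was normalized to the initial reading.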

[7] = qHTS to identify inhibitors of the type 1 interferon - major histocompatibility complex class I in skeletal muscle: primary screen against the NCATS LOPAC collection (AID 1347405); conditions: iHSKM muscle cells, IFN-b-induced MHC-I HiBiT luminescence, 24 h; at 45.9 µM (top of the series);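 further: lytic HiBiT luminescence reporting HLA-B protein level; on the % scale 0 is the no-effect control and ±100 the full control effect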
Method in brief: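 Luminescence from HiBiT fused to endogenous HLA-B in CRISPR-engineered human myoblasts served as the read-out. Cells received 4.0 ng/ml IFN-beta plus compound (seven concentrations, 1:4.3 steps, highest 46 uM final) for 24 hrs before lytic detection.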

[8] = qHTS for inhibitors of adenylyl cyclases using a fission yeast platform: a pilot screen against the NCATS LOPAC library (AID 1347410);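 further: plate controls were DMSO vehicle for no effect and DPI positive control for full effect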; conditions: S. pombe CHP2027, fbp1-GFP fluorescence, 18 h, yeast expressing mammalian AC9 and human GNAS; at 57.5 µM (top of the series)
Method in brief: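 Read-out: fbp1-GFP fluorescence by laser scanning cytometry (488 nm laser), a gain of signal when AC/cAMP-PKA signalling is inhibited. Strain CHP2027 expressing AC9, GNAS and PDE4D2; compounds at up to 57 µM; 18 h, 30C.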

[9] = Validation qHTS assay for inhibitors of Activation Induced Cytidine Deaminase (AID): UDG Counterscreen signal (AID 1347427); conditions: biochemical UDG counterscreen, fluorescence signal; at 115 µM (top of the series); further: 0% is about no effect
Method in brief: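 Counterscreen read of UDG activity (2 U/mL, 4/3x) in the FRET deamination format with AID (1 uM, 4/3x), DJC20/DJC23 substrates (250 nM, 4x), 4 h at room temperature. NaOH stop, fluorescence at 560 ex/665 em.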

[10] = molecular target: Single-stranded DNA cytosine deaminase (Homo sapiens) (UniProt Q9GZX7); assay: Validation qHTS assay for inhibitors of Activation Induced Cytidine Deaminase (AID): AID signal (AID 1347429); conditions: Recombinant AID, FRET ssDNA deamination with UDG, fluorescence; at 115 µM (top of the series); further: on the % scale 0 is the no-effect control and ±100 the full control effect
Method in brief: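 Fluorescence at 540 nm excitation and 590 nm emission reports ssDNA cytosine deamination by AID, with UDG in the same well. Compound-treated reactions ran 4 hr at room temperature with DJC20/DJC23 substrate, followed by 30 min NaOH treatment.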

[11] = Primary qHTS for small molecule stabilizers of the endoplasmic reticulum resident proteome: Secreted ER Calcium Modulated Protein (SERCaMP) assay (AID 1508630); conditions: SH-SY5Y GLuc-SERCaMP (Gaussia luciferase released on ER calcium loss) secretion, thapsigargin, luminescence; at 38.4 µM (top of the series); further: on the % scale 0 is the no-effect control and ±100 the full control effect
Method in brief: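 GLuc-SERCaMP-expressing SH-SY5Y cells, pretreated 16 h with compound, are challenged with thapsigargin to empty ER calcium stores; after 4 h, coelenterazine is added directly to the medium and luminescence is imaged.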

Papain (Carica papaya) = Papain (Carica papaya) (UniProt P00784); assay: Primary qHTS assay for inhibitors of the protease papain (AID 1645873); conditions: papain Z-FR-AMC cleavage, AMC fluorescence; at 49.8 µM (top of the series)
[12] = molecular target: Metallo-beta-lactamase type 2 (Klebsiella pneumoniae) (UniProt C7C422); assay: qHTS to identify inhibitors of the New Delhi Metallo-beta-lactamase (NDM): assay validation screen against the NCATS LOPAC Collection (AID 1794843); conditions: NDM-1 enzyme, nitrocefin hydrolysis, absorbance 485 nm; at 38.4 µM (top of the series)
Method in brief: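 NDM-1 at 2 nM final in 50 mM HEPES pH 7.0, 1 uM ZnSO4, 0.01% Tween20, preincubated with LOPAC compounds pinned in DMSO; 50 uM nitrocefin (stock) added. Hydrolysis read as absorbance at 485 nm in the plateau phase.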

[13] = molecular target: Glutathione peroxidase 1 (Homo sapiens) (UniProt P07203); assay: Primary qHTS Assay for Inhibitors of Recombinant Selenoprotein Glutathione Peroxidase 1 (GPX1) (AID 1845191); conditions: recombinant GPX1, GR-coupled NADPH fluorescence, 15 min; activity, negative = inhibition: at 48.8 µM (top of the series); further: on the % scale 0 is the no-effect control and ±100 the full control effect; nearly all actives have a fitted effect of over 65% in size
Method in brief: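 GR-coupled assay: compounds preincubated 30 min at room temperature with GPX1, then reaction started with CHP; final 10 nM GPX1, 1 mM GSH, 0.5 mM CHP, 0.5 mM NADPH, 100 nM GR, 0.01% BSA, pH 7.5 Tris buffer. NADPH fluorescence (340/450 nm) read at 0 and 15 min.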

[14] = molecular target: Phospholipid hydroperoxide glutathione peroxidase GPX4 (Homo sapiens) (UniProt P36969); assay: Primary qHTS Assay for Inhibitors of Recombinant Selenoprotein Glutathione Peroxidase 4 (GPX4) (AID 1845192); conditions: recombinant GPX4, GR-coupled NADPH fluorescence, 15 min; activity change, negative = inhibition: at 50 µM (top of the series); further: on the % scale 0 is the no-effect control and ±100 the full control effect; nearly all actives have a fitted effect of over 65% in size
Method in brief: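 GR-coupled assay: recombinant GPX4 preincubated 30 min with compound at room temperature; final 200 nM GPX4, 1 mM GSH, 0.5 mM cumene hydroperoxide, 0.5 mM NADPH, 100 nM GR, 0.01% BSA, pH 7.5 Tris. NADPH fluorescence (340/450 nm) read at 0 and 15 min.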

CN(C(=O)Cc1ccccc1)[C@@H]1CC[C@]2(CCCO2)C[C@H]1N1CCCC1
inactive: activity change, negative = inhibition [1] 0.0328% | activity change, negative = inhibition [2] 4.29% | activity change, negative = inhibition [3] 1.06% | activity change, negative = inhibition [4] 0.472% | activation [5] 36.1% | activity change, negative = inhibition [6] -2.78% | activity change, negative = inhibition [7] -22.4% | activity, positive = inhibition (GFP gain) [8] -0.438% | activity, negative = inhibition [9] 12.4% | activity change, negative = inhibition [10] 34.1% | activity change, negative = inhibition [11] -10.1% | activity change, negative = inhibition (Papain (Carica papaya)) -8.73% | activity change, negative = inhibition [12] -6.82% | activity, negative = inhibition [13] -26.4% | activity change, negative = inhibition [14] -23.6%
